Data from ChEMBL document CHEMBL2177014, “Combining galantamine and memantine in multitargeted, new chemical entities potentially useful in Alzheimer's disease” (J Med Chem, 2012).

Protein sequences, listed by entry. Tags and fused reporters are not part of them.
UniProt Q00960, whole entry: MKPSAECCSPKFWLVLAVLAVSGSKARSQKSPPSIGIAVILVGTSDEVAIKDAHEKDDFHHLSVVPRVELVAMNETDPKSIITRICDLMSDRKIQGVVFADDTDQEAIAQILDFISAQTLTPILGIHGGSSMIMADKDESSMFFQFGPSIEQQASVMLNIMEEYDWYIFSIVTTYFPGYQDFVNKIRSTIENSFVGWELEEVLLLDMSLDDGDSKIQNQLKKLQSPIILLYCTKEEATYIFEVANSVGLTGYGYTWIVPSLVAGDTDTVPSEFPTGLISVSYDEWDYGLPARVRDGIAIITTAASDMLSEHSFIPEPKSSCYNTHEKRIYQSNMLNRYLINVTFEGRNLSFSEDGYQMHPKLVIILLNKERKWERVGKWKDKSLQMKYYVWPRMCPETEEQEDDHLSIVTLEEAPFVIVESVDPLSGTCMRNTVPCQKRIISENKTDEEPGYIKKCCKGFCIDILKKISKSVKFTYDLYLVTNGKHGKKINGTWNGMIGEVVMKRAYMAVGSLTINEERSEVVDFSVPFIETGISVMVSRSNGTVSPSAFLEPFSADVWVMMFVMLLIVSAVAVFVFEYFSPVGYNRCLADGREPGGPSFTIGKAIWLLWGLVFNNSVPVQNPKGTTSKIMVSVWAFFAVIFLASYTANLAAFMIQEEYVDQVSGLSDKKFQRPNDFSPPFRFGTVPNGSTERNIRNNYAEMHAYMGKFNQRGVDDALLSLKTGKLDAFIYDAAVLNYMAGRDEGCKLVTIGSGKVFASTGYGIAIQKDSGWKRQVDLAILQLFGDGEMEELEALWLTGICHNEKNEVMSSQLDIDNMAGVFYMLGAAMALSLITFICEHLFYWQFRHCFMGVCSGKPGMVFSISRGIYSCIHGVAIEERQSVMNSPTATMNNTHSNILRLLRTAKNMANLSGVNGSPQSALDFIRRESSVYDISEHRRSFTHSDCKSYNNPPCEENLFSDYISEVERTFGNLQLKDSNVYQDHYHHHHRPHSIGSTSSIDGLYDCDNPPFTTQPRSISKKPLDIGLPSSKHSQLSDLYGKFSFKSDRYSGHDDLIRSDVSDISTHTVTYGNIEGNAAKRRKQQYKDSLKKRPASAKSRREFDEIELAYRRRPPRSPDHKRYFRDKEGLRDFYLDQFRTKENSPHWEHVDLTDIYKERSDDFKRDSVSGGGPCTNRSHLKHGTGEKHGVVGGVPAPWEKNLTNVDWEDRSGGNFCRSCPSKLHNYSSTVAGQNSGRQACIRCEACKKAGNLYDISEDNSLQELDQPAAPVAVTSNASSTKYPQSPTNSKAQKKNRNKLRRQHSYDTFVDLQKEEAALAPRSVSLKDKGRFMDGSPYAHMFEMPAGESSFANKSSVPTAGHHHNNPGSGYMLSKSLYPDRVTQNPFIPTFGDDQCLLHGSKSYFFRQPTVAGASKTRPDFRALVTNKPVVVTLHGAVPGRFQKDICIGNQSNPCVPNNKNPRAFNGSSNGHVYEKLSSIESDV

Target: Glutamate receptor ionotropic, NMDA 2B (Rattus norvegicus, UniProt Q00960)
Experiment: Displacement of [3H]Ifenprodil from NMDAR-2B in Sprague-Dawley rat frontal cortex homogenates after 2 hrs by liquid scintillation counting
Type: tissue-based

## CC12CC3CC(C)(C1)CC(N)(C3)C2 [MEMANTINE]
  Ki: > 100 µM
